Earlier results as cited in article PMC11747885, “Potent inhibitors of the human RNA ligase Rlig1 highlights its role in RNA integrity maintenance under oxidative cellular stress” (Chemical Science, 2025).

Biological target: human topoisomerase II
Set-up: method as in MedChemExpress
Settings: ref MedChemExpress; cited from earlier work

SMILES: COc1cccc2c1C(=O)c1c(O)c3c(c(O)c1C2=O)C[C@@](O)(C(=O)CO)C[C@@H]3O[C@H]1C[C@H](N)[C@H](O)[C@H](C)O1.Cl [Doxorubicin (hydrochloride)]
- IC50: 2.67 µM
